pIC50: −log10 of the molar value.
Tested on: PluxC-gfp reporter in V. campbellii
Assay: PluxC-gfp reporter in V. campbellii strains
Conditions: Vibrio campbellii, ATCC25920, read-out: Inhibition (IC50) of the PluxC-gfp reporter, Vcamp ATCC 25920

Molecule `O=S(=O)(c1ccc(Br)s1)n1cccc1` [Compound 3A, 1-((5-bromothiophen-2-yl)sulfonyl)-1H-pyrrole] has a pIC50 of 5.96.

— patent publication US20230257373A1, “QUORUM SENSING INHIBITORS AND METHODS OF USE” (priority 2020, published 2023)
